The text on the data set: The active agent may be any active agent suitable to treat the desired condition. […] Examples include, but are not limited to, acetazolamide, dorzolamide HCl, timolol maleate, and ethacrynic acid sodium salt.

For the substance “albumin: albumin, approximately 67 kDa, labeled with fluorescein isothiocyanate (BSA-FITC, Fluka), mixed with unlabeled albumin”, the solubility class result was “high solubility”.

The values above are taken from patent US8765166B2, “Drug delivery devices for delivery of ocular therapeutic agents” (Aerie Pharmaceuticals, Inc., priority 2010, dated 2014).
